One test deals with AChE (Homo sapiens, UniProt P22303). Particulars: pH 8.
In a further test the target is BuChE (Homo sapiens, UniProt P06276). Particulars: read-out: BuChE IC50 (µM ± SEM); in vitro enzyme inhibition.

Chains of the proteins cited; added tags and fusions are not shown. Residues count along the entry.
UniProt P22303, 32-614 limits assumed: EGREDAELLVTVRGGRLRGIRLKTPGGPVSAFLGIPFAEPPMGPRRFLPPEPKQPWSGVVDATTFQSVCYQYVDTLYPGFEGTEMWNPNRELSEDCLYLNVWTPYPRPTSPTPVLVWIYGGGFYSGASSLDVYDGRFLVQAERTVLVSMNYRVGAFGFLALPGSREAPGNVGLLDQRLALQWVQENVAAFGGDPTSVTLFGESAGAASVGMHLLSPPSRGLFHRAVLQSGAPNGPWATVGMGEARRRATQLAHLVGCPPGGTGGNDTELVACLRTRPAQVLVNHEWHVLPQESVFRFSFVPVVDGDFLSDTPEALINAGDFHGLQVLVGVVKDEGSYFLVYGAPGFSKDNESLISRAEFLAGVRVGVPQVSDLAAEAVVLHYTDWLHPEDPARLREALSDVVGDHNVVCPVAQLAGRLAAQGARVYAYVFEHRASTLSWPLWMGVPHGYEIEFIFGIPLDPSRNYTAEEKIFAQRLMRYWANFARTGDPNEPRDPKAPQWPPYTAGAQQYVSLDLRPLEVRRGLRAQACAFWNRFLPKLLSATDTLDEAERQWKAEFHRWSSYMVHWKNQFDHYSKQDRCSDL
UniProt P06276, 29-602 limits assumed: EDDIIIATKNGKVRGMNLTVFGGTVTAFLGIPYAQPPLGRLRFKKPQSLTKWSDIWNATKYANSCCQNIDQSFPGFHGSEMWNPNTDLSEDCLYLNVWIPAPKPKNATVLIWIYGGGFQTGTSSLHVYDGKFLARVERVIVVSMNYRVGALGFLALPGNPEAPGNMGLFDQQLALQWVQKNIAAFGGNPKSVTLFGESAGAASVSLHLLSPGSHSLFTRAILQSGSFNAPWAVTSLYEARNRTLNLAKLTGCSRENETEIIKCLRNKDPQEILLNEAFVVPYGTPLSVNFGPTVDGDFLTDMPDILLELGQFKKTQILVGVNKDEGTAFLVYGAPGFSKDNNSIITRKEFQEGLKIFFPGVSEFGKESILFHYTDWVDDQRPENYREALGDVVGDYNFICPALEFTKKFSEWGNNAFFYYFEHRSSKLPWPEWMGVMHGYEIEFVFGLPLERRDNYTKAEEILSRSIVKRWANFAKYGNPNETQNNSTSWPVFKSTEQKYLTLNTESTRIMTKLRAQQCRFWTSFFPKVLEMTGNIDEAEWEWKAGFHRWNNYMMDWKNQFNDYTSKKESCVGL

Each structure is given as a SMILES string.

Consider two molecules from PMC9657098, “Synthesis, In Vitro Biological Evaluation and In Silico Molecular Docking Studies of Indole Based Thiadiazole Derivatives as Dual Inhibitor of Acetylcholinesterase and Butyrylchloinesterase” (Molecules, 2022).

What is called IC50 is the point on the concentration scale where inhibition reaches its midpoint.

For `O=[N+]([O-])c1ccc(Nc2nnc(Cc3cc4cc(Cl)ccc4[nH]3)s2)cc1Cl`, the IC50 at AChE is 2.9 µM; on BuChE, 4.6 µM.

Consider `O=[N+]([O-])c1cc(Nc2nnc(Cc3cc4cc(Cl)ccc4[nH]3)s2)ccc1Cl`, for which the IC50 at AChE stood at 2.1 µM; at BuChE it was 2.8 µM.
